Here are results for 17 compounds from US20250051338A1, “TYK2 DEGRADERS AND USES THEREOF” (Kymera Therapeutics, Inc., priority 2021, published 2025).

Chains of the proteins cited; added tags and fusions are not shown.
UniProt P29597, whole entry: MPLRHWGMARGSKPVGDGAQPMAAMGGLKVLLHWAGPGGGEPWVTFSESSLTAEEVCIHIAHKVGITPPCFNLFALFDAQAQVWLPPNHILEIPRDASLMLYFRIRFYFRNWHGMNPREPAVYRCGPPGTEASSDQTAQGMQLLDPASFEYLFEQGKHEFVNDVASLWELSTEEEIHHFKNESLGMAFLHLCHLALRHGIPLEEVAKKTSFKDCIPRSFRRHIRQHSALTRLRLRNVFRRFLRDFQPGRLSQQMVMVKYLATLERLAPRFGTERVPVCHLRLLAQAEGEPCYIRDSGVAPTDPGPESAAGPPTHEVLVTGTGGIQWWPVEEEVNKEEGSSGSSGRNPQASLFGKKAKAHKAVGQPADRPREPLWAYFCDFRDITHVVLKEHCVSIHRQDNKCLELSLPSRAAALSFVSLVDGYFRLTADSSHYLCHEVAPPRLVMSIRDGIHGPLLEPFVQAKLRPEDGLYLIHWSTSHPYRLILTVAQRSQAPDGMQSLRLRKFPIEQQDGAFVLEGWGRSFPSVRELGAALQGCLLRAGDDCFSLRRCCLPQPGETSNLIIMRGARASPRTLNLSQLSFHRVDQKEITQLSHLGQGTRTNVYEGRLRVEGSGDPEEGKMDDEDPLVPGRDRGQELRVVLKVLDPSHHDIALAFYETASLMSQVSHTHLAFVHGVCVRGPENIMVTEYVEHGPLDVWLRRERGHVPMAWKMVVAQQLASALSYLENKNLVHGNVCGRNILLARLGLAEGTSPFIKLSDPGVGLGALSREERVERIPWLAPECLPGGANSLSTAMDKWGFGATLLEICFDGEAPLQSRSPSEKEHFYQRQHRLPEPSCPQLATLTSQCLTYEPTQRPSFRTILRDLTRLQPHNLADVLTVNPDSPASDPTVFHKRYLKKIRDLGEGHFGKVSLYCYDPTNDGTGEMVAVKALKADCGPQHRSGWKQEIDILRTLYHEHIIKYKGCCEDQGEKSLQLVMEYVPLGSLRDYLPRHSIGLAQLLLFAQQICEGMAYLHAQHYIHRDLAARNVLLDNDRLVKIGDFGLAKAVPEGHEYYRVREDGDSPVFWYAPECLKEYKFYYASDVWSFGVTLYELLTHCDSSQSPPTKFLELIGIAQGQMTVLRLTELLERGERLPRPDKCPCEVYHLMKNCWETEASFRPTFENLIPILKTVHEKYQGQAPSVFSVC

The target of test [1] is T1, TYK2 (Homo sapiens, UniProt P29597). The experiment in a line: TYK2 degradation MSD assay in OCI-LY10 cells. The following applies: read-out: TYK2 MSD DC50 rating in OCI-LY10, 4 to 24 hours incubation. Here is the method:
(§1) Example 3. TYK2 Degradation MSD Assay in EBV-B, OCI-LY10, and Human PBMC Cells
(§2) Degradation of TYK2 in cells was quantitatively measured using Meso Scale Discovery (MSD) technology. EBV-B, OCI-LY10 or human PBMC cells were seeded in 96-well plates with a density of 0.4 million cells per well in 100 μl fresh media. Compounds were then added to the assay plates with a final top concentration of 1 to 10 μM in a 1:3 dilution series with total of 9 doses. The assay plates were then incubated for 4 to 24 hours at 37° C. under 5% CO2. The assay plates were then centrifuged for 5 minutes, and the cell pellets were treated with 100 μl/well RIPA lysis buffer (Boston Bioproducts, BP-115D) with protease and phosphatase inhibitors (Roche, 05892791001 and 04906837001). To prepare MSD assay plates (MSD, L15XA), the plates were coated with the capture antibody (Santa Cruz Biotechnology, SC-5271) in PBS, at 40 μl/well. The plates were then incubated overnight at 4° C., washed 3 times with 150 μl/well TBST buffer (Cell Signaling Technology, 9997S) and blocked with 150 μl/well blocking buffer (MSD, R93BA-4). Cell lysates were then added to MSD assay plates and the plates were incubated at room temperature for 1 hour. The plates were then washed 3 times with 150 μl/well TBST buffer and 25 μl/well primary detection antibody (Cell Signaling Technology, #9312). The assay plates were then incubated at room temperature for 1 hour, washed 3 times with 150 μl/well TBST buffer, and 25 μl/well secondary detection antibody, SULFO-TAG anti-rabbit antibody (MSD, R32AB-1) were added. The assay plates were then incubated at room temperature for 1 hour, washed 3 times with 150 μl/well TBST buffer, and 150 μl/well MSD reading buffer (MSD, R92TC-2) were added. The plates were then analyzed by an MSD reader. The data was analyzed by GraphPad Prism and the dose dependent TYK2 degradation was fit using the four-parameter inhibitor vs. response nonlinear regression. The DC50 data were measured and categorized into different levels in Table H. The compound with DC50 less than or equal to 1 nM is marked as A, with DC50 more than 1 nM and less than or equal to 10 nM is marked as B, with DC50 more than 10 nM and less than or equal to 100 nM is marked as C, and with DC50 more than 100 nM or not available is marked as D.

The target in test [2] is T1, TYK2. The experiment in a line: TYK2 degradation MSD assay in EBV-B cells. Format: cell-based. As to conditions: read-out: TYK2 MSD DC50 rating in EBV-B, 4 to 24 hours incubation. Here is the method:
as §1, §2

The target in test [3] is T1, TYK2. The experiment in a line: TYK2 degradation MSD assay in human PBMC cells. The following applies: read-out: TYK2 MSD DC50 rating in human PBMC, 4 to 24 hours incubation. Here is the method: as §1, §2

As a reminder, the DC50 is the concentration giving 50% degradation.

The structures appear in SMILES notation. Bounds are passed on as bounds.

On to `CNc1cc(N2CCc3c(-c4ccc(CN5CCC(N6CCN(c7ccc8c(c7)n(C)c(=O)n8C7CCC(=O)NC7=O)CC6)C(F)(F)C5)cn4)cccc32)nn2c(C(=O)N[C@@H]3C[C@@H]3F)cnc12` (stereo partly drawn), for which the 50% degradation concentration (DC50) on TYK2 [1] was under 1 nM; at TYK2 [2] it was over 100 nM; at TYK2 [3], over 100 nM.

Consider `CNc1cc(Nc2cccn(-c3ccc(C(=O)N4CCOC5(CN(CC#Cc6ccc7c(c6)n(C)c(=O)n7C6CCC(=O)NC6=O)C5)C4)cn3)c2=O)nn2c(C(=O)N[C@@H]3C[C@@H]3F)cnc12` (stereo partly drawn), for which the DC50 at TYK2 [1], on TYK2 [2] and on TYK2 [3] was over 100 nM in each case.

As to `Cn1c(=O)n(C2CCC(=O)NC2=O)c2ccc(CCOCCOCCOCCOCCOCCOCCNc3cc(Nc4cccn(-c5ccccn5)c4=O)nn4c(C(=O)N[C@@H]5C[C@@H]5F)cnc34)cc21` (stereo partly drawn), the DC50 at TYK2 [1], at TYK2 [2] and on TYK2 [3] was over 100 nM in each case.

Turning to `CNc1cc(N2CCc3c(N4CCN(CC5CCN(c6ccc(-c7ccc8c(c7)n(C)c(=O)n8C7CCC(=O)NC7=O)cc6)CC5)CC4)cccc32)nn2c(C(=O)N[C@@H]3C[C@@H]3F)cnc12` (stereo partly drawn), the DC50 at TYK2 [1], at TYK2 [2] and at TYK2 [3] was over 100 nM throughout.

`CNc1cc(N2CCc3c(-c4ccc(CN5CCN(c6ccc7c(c6)n(C)c(=O)n7C6CCC(=O)NC6=O)CC5)cn4)cccc32)nn2c(C(=O)N[C@@H]3C[C@@H]3F)cnc12` (stereo partly drawn): the DC50 at TYK2 [1] is under 1 nM; at TYK2 [2], over 100 nM; on TYK2 [3], over 100 nM.

Take `CNc1cc(Nc2c(F)ccc(-c3ccc(CN4CCN(c5ccc(-c6ccc7c(c6)n(C)c(=O)n7C6CCC(=O)NC6=O)cc5)CC4)cn3)c2OC)nn2c(C(=O)N[C@@H]3C[C@@H]3F)cnc12` (stereo partly drawn): the DC50 is 1 to 10 nM at TYK2 [1], over 100 nM at TYK2 [2] and over 100 nM on TYK2 [3].

Regarding `CNc1cc(Nc2cccc(-c3ccc(CN4CCN(c5ccc(-c6ccc7c(c6)n(C)c(=O)n7C6CCC(=O)NC6=O)cc5)CC4)cn3)c2)nn2c(C(=O)NC3CCOC3)cnc12` (stereo not drawn), the DC50 on TYK2 [1] was 1 to 10 nM; on TYK2 [2], over 100 nM; on TYK2 [3] it was over 100 nM.

Regarding `CNc1cc(N2CCc3c(-c4ccc(C(=O)N5CCN(CC6CCN(c7ccc(-c8ccc9c(c8)n(C)c(=O)n9C8CCC(=O)NC8=O)cc7)CC6)CC5)cn4)cccc32)nn2c(C(=O)N[C@@H]3C[C@@H]3F)cnc12` (stereo partly drawn), the DC50 at TYK2 [1] was 1 to 10 nM; at TYK2 [2], over 100 nM; on TYK2 [3], over 100 nM.

On to `CNC(=O)c1cnc(Nc2cc(CN3CCN(c4ccc5c(c4)n(C)c(=O)n5C4CCC(=O)NC4=O)CC3)ccn2)cc1Nc1cccc(-c2ncc(F)cn2)c1OC` (stereo not drawn), for which the DC50 was over 100 nM on TYK2 [1], under 1 nM at TYK2 [2] and under 1 nM at TYK2 [3].

With `Cn1c(=O)n(C2CCC(=O)NC2=O)c2ccc(-c3ccc([C@H]4CC[C@H](N5CCN(Cc6ccc(-c7cccc(Nc8ccc9ncc(C(=O)NC%10CC%10)n9n8)c7)nc6)CC5)CC4)cc3)cc21` (stereo partly drawn), the DC50 on TYK2 [1], at TYK2 [2] and on TYK2 [3] was over 100 nM throughout.

For the compound `CNC(=O)c1cnc(Nc2ccc(C(=O)NCCOCCOCCc3cccc4c3n(C)c(=O)n4C3CCC(=O)NC3=O)cn2)cc1Nc1cccc(-c2ncc(F)cn2)c1OC` (stereo not drawn), the DC50 is over 100 nM at TYK2 [1], 10 to 100 nM at TYK2 [2] and 1 to 10 nM at TYK2 [3].

Regarding `CNc1cc(Nc2cccn(-c3ccc(C(=O)N4CCC5(CCN(c6ccc(-c7ccc8c(c7)n(C)c(=O)n8C7CCC(=O)NC7=O)cc6)C5)C4)cn3)c2=O)nn2c(C(=O)N[C@@H]3C[C@@H]3F)cnc12` (stereo partly drawn), the DC50 at TYK2 [1] was under 1 nM; on TYK2 [2], over 100 nM; on TYK2 [3] it was over 100 nM.

With `CNC(=O)c1cnc(Nc2ccc(C(=O)N(C)C3CCN(c4cccc5c4n(C)c(=O)n5C4CCC(=O)NC4=O)CC3)cn2)cc1Nc1cccc(-c2ncc(F)cn2)c1OC` (stereo not drawn), the DC50 at TYK2 [1], at TYK2 [2] and at TYK2 [3] was under 1 nM throughout.

On to `CNC(=O)c1cnc(Nc2ccc(C(=O)NCCOCCOCCOCCOCCc3cccc4c3n(C)c(=O)n4C3CCC(=O)NC3=O)cn2)cc1Nc1cccc(-c2ncc(F)cn2)c1OC` (stereo not drawn), for which the DC50 was over 100 nM on TYK2 [1], 1 to 10 nM at TYK2 [2] and 1 to 10 nM at TYK2 [3].

As for `CNc1cc(Nc2cccn(-c3ccc(CN4CCC(N5CC(N6CCN(c7ccc8c(c7)n(C)c(=O)n8C7CCC(=O)NC7=O)CC6)C5)CC4)cn3)c2=O)nn2c(C(=O)N[C@@H]3C[C@@H]3F)cnc12` (stereo partly drawn), the DC50 on TYK2 [1] is under 1 nM; on TYK2 [2], over 100 nM; on TYK2 [3] it was over 100 nM.

As for `CNC(=O)c1cnc(Nc2ccc(C(=O)NCCOCCOCCOCCOCCOCCOCCc3cccc4c3n(C)c(=O)n4C3CCC(=O)NC3=O)cn2)cc1Nc1cccc(-c2ncc(F)cn2)c1OC` (stereo not drawn), the DC50 was over 100 nM on TYK2 [1], 10 to 100 nM at TYK2 [2] and 1 to 10 nM at TYK2 [3].

Consider `CNc1cc(Nc2cccn(-c3ccc(C(=O)N[C@H]4CC[C@H](CN5CC[C@@H](N6CCN(Cc7ccc8c(c7)n(C)c(=O)n8C7CCC(=O)NC7=O)CC6)C5)CC4)cn3)c2=O)nn2c(C(=O)N[C@@H]3C[C@@H]3F)cnc12` (stereo partly drawn), for which the DC50 is under 1 nM on TYK2 [1], over 100 nM at TYK2 [2] and over 100 nM at TYK2 [3].
